## Cyclic peptide permeability, from CycPeptMPDB

Data: CycPeptMPDB; original report Townsend et al. 2020, doi:10.26434/chemrxiv.13335941.v1.

PAMPA measures passive passage through an artificial lipid membrane.
Permeability is in 10^-6 cm/s, converted from the database's log10 values; higher is more permeable.

PAMPA (10^-6 cm/s),structure (SMILES)
2.5,CC(C)C[C@@H]1NC(=O)[C@H](CC(C)C)N(C)C(=O)C[C@H](Cc2ccccc2)NC(=O)[C@H]2CCCN2C(=O)[C@H](Cc2ccccc2)NC(=O)[C@@H](CC(C)C)N(C)C(=O)[C@H]2CCCN2C1=O
0.18,CC(C)C[C@@H]1NC(=O)[C@H](C)NC(=O)[C@@H]2CCCN2C(=O)[C@H](Cc2ccccc2)NC(=O)[C@H](CC(C)C)N(C)C(=O)[C@@H]2CCCN2C(=O)[C@@H](CC(C)C)N(C)C1=O
1.3,CC(C)C[C@@H]1C(=O)N[C@@H](Cc2ccccc2)CC(=O)N2CCC[C@H]2C(=O)N(C)[C@H](CC(C)C)C(=O)N[C@@H](Cc2ccccc2)C(=O)N2CCC[C@H]2C(=O)N[C@H](C)C(=O)N1C
3.5,CC(C)C[C@@H]1NC(=O)[C@@H]2CCCN2C(=O)[C@H](CC(C)C)NC(=O)[C@H](CC(C)C)N(C)C(=O)C[C@H](Cc2ccccc2)NC(=O)[C@H]2CCCN2C(=O)[C@H](Cc2ccccc2)NC1=O
6.3,CC(C)C[C@@H]1C(=O)N[C@@H](Cc2ccccc2)C(=O)N2CCC[C@@H]2C(=O)N[C@@H](Cc2ccccc2)CC(=O)N(C)[C@@H](CC(C)C)C(=O)N(C)[C@@H](CC(C)C)C(=O)N2CCC[C@H]2C(=O)N1C
2,CC(C)C[C@@H]1NC(=O)[C@@H](CC(C)C)N(C)C(=O)[C@H](C)N(C)C(=O)[C@@H]2CCCN2C(=O)[C@H](Cc2ccccc2)NC(=O)CN(Cc2ccccc2)C(=O)[C@H]2CCCN2C1=O
5.1,CC(C)C[C@H]1C(=O)N(Cc2ccccc2)CC(=O)N2CCC[C@H]2C(=O)N(C)[C@@H](CC(C)C)C(=O)N[C@@H](Cc2ccccc2)C(=O)N[C@@H](Cc2ccccc2)CC(=O)N1C
0.17,CC(C)C[C@@H]1NC(=O)[C@H]2CCCN2C(=O)[C@@H](CC(C)C)NC(=O)[C@@H](CC(C)C)NC(=O)[C@H](C)NC(=O)[C@H]2CCCN2C(=O)[C@H](Cc2ccccc2)NC1=O
0.59,CC(C)C[C@@H]1NC(=O)[C@H](C)NC(=O)[C@@H]2CCCN2C(=O)[C@H](Cc2ccccc2)NC(=O)[C@H](CC(C)C)N(C)C(=O)[C@H]2CCCN2C(=O)[C@H](CC(C)C)N(C)C1=O
0.46,CC(C)C[C@@H]1NC(=O)[C@@H]2CCCN2C(=O)[C@@H](CC(C)C)N(C)C(=O)[C@H](CC(C)C)N(C)C(=O)[C@H](C)NC(=O)[C@H]2CCCN2C(=O)[C@H](Cc2ccccc2)NC1=O
2.7,CC(C)C[C@H]1NC(=O)[C@@H](C)N(C)C(=O)[C@H]2CCCN2C(=O)[C@H](Cc2ccccc2)NC(=O)CN(Cc2ccccc2)C(=O)[C@@H]2CCCN2C(=O)[C@H](CC(C)C)N(C)C1=O
14,CCCN1CC(=O)N(C)[C@H](CC(C)C)C(=O)N(C)[C@H](CC(C)C)C(=O)N2CCC[C@H]2C(=O)N(C)[C@H](CC(C)C)C(=O)N[C@@H](Cc2ccccc2)C1=O
8.5,CC(C)C[C@H]1NC(=O)[C@@H]2CCCN2C(=O)[C@@H](CC(C)C)NC(=O)CN(Cc2ccccc2)C(=O)[C@@H](C)N(C)C(=O)[C@H](Cc2ccccc2)NC1=O
2,CC(C)C[C@@H]1NC(=O)[C@@H](CC(C)C)N(C)C(=O)[C@H](C)NC(=O)[C@H](Cc2ccccc2)NC(=O)[C@@H](CC(C)C)NC(=O)[C@H]2CCCN2C1=O
8.5,CC(C)C[C@@H]1NC(=O)C[C@H](Cc2ccccc2)NC(=O)[C@H](Cc2ccccc2)NC(=O)[C@@H](CC(C)C)N(C)C(=O)[C@H]2CCCN2C(=O)[C@@H](CC(C)C)NC1=O

The last 2 entries again:

structure (SMILES),PAMPA (10^-6 cm/s)
CC(C)C[C@@H]1NC(=O)[C@@H](CC(C)C)N(C)C(=O)[C@H](C)NC(=O)[C@H](Cc2ccccc2)NC(=O)[C@@H](CC(C)C)NC(=O)[C@H]2CCCN2C1=O,2
CC(C)C[C@@H]1NC(=O)C[C@H](Cc2ccccc2)NC(=O)[C@H](Cc2ccccc2)NC(=O)[C@@H](CC(C)C)N(C)C(=O)[C@H]2CCCN2C(=O)[C@@H](CC(C)C)NC1=O,8.5

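Conditions beyond the assay type are not listed; see the original paper. The list need not hold all peptides of the study. Entries at the database's floor value (log10 P of -10) are not listed.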